PubChem BioAssay (EPA / NIEHS)
This is a selection; strong and weak results do not stand in their true shares. The source made the active and inactive calls. How the source made its calls: active means hit-call score of the fitted dose curve at least 0.9, where 1 is the maximum; inactive means score below 0.9.

Amino acid sequences for entries named in this document (tags omitted).
UniProt P33261, whole entry: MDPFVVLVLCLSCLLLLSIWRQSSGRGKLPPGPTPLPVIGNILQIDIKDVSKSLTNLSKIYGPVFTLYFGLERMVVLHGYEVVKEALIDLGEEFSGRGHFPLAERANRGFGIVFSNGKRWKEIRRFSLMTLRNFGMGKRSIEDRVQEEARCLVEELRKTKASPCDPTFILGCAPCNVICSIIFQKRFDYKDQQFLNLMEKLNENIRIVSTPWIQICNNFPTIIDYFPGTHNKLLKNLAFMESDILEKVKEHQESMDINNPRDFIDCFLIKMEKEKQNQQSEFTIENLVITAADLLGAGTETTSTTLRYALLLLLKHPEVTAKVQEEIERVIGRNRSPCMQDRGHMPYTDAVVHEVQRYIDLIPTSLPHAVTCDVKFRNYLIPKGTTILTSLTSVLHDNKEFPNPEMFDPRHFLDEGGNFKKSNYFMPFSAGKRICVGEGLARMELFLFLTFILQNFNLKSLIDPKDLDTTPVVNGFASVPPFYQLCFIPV

read-out: Cytochrome P450 (CYP24A1), CYP24A1 (gene 1591); experiment: LTEA_HepaRG_CYP24A1: Life Technologies and Expression Analysis (LTEA) Assay for Cytochrome P450 (CYP24A1) using HepaRG (AID 2283478); details: actives raise or lower the signal; mRNA level, 48 h
Method in brief: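 qRT-PCR read-out: CYP24A1 transcript levels normalized to three housekeeping genes, bidirectional curve fits against 0.5% DMSO baseline. Human HepaRG cells treated 48 h with chemicals at eight concentrations from 100 uM in half-log steps.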

Compound | outcome
Cc1c([N+](=O)[O-])cccc1[N+](=O)[O-] | inactive
Cc1ccc([N+](=O)[O-])cc1[N+](=O)[O-] | inactive
CC(C)OP(C)(=O)OC(C)C | inactive
Cc1cccc([N+](=O)[O-])c1[N+](=O)[O-] | inactive
O=[N+]([O-])c1cccc([N+](=O)[O-])c1 | inactive

read-out: Cytochrome P450 (CYP1A2), CYP1A2 (gene 1544); experiment: LTEA_HepaRG_CYP1A2: Life Technologies and Expression Analysis (LTEA) Assay for Cytochrome P450 (CYP1A2) using HepaRG (AID 2283479); details: actives raise or lower the signal; mRNA level, 48 h
Method in brief: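 HepaRG, 48 h exposure, top 100 uM, half-log 8-pt, 0.5% DMSO vehicle, duplicates. Readout: TaqMan qRT-PCR of CYP1A2 mRNA, housekeeping-normalized (ACTB/GAPDH/POLR2A). Gain/loss fit relative to DMSO baseline.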

Compound | outcome | AC50
Cc1c([N+](=O)[O-])cccc1[N+](=O)[O-] | inactive | –
Cc1ccc([N+](=O)[O-])cc1[N+](=O)[O-] | – | active: 23.2 µM
CC(C)OP(C)(=O)OC(C)C | inactive | –
Cc1cccc([N+](=O)[O-])c1[N+](=O)[O-] | inactive | –
O=[N+]([O-])c1cccc([N+](=O)[O-])c1 | inactive | –

read-out: cysteine-aspartic acid protease (CASP8), CASP8 (gene 841); experiment: LTEA_HepaRG_CASP8: Life Technologies and Expression Analysis (LTEA) Assay for cysteine-aspartic acid protease (CASP8) using HepaRG (AID 2283480); details: actives raise or lower the signal; mRNA level, 48 h
Method in brief: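 CASP8 transcript measured by TaqMan qRT-PCR with ACTB/GAPDH/POLR2A normalization, after 48 h chemical exposure of HepaRG cells in serum-free induction medium. Eight concentrations, top 100 uM, half-log steps, 0.5% DMSO vehicle; fits in both directions versus DMSO.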

Compound | outcome
Cc1c([N+](=O)[O-])cccc1[N+](=O)[O-] | inactive
Cc1ccc([N+](=O)[O-])cc1[N+](=O)[O-] | inactive
CC(C)OP(C)(=O)OC(C)C | inactive
Cc1cccc([N+](=O)[O-])c1[N+](=O)[O-] | inactive
O=[N+]([O-])c1cccc([N+](=O)[O-])c1 | inactive

read-out: Cytochrome P450 (CYP2B6), CYP2B6 (gene 1555); experiment: LTEA_HepaRG_CYP2B6: Life Technologies and Expression Analysis (LTEA) Assay for Cytochrome P450 (CYP2B6) using HepaRG (AID 2283481); details: actives raise or lower the signal; mRNA level, 48 h
Method in brief: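 Read-out is CYP2B6 mRNA by TaqMan qRT-PCR, normalized to three housekeeping genes and fitted bidirectionally against 0.5% DMSO baseline. Human HepaRG cells received test chemicals for 48 h, top concentration 100 uM, half-log dilutions.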

Compound | AC50 | outcome
Cc1c([N+](=O)[O-])cccc1[N+](=O)[O-] | active: 21.4 µM | –
Cc1ccc([N+](=O)[O-])cc1[N+](=O)[O-] | active: 32.2 µM | –
CC(C)OP(C)(=O)OC(C)C | – | inactive
Cc1cccc([N+](=O)[O-])c1[N+](=O)[O-] | active: 11.6 µM | –
O=[N+]([O-])c1cccc([N+](=O)[O-])c1 | – | inactive

read-out: Cytochrome P450 2C19 (Homo sapiens) (UniProt P33261); experiment: LTEA_HepaRG_CYP2C19: Life Technologies and Expression Analysis (LTEA) Assay for CYP2C19 using HepaRG (AID 2283482); details: actives raise or lower the signal; mRNA level, 48 h
Method in brief: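 HepaRG, 48 h chemical exposure, 8-pt half-log series from 100 uM in 0.5% DMSO, duplicates. Readout: CYP2C19 mRNA by TaqMan qRT-PCR, housekeeping-normalized. Bidirectional fit vs DMSO baseline; phenobarbital 1mM as induction control.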

Compound | outcome | AC50
Cc1c([N+](=O)[O-])cccc1[N+](=O)[O-] | inactive | –
Cc1ccc([N+](=O)[O-])cc1[N+](=O)[O-] | – | active: 32.5 µM
CC(C)OP(C)(=O)OC(C)C | inactive | –
Cc1cccc([N+](=O)[O-])c1[N+](=O)[O-] | inactive | –
O=[N+]([O-])c1cccc([N+](=O)[O-])c1 | inactive | –

read-out: CYP2C8 (gene 1558); experiment: LTEA_HepaRG_CYP2C8: Life Technologies and Expression Analysis (LTEA) Assay for CYP2C8 using HepaRG (AID 2283483); details: actives raise or lower the signal; mRNA level, 48 h
Method in brief: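 CYP2C8 expression measured by TaqMan qRT-PCR and normalized to three housekeeping genes. HepaRG cultures were treated for 48 h with an eight-point half-log series topping at 100 uM, vehicle 0.5% DMSO, duplicates; fitted both directions against DMSO.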

Compound | outcome
Cc1c([N+](=O)[O-])cccc1[N+](=O)[O-] | inactive
Cc1ccc([N+](=O)[O-])cc1[N+](=O)[O-] | inactive
CC(C)OP(C)(=O)OC(C)C | inactive
Cc1cccc([N+](=O)[O-])c1[N+](=O)[O-] | inactive
O=[N+]([O-])c1cccc([N+](=O)[O-])c1 | inactive

read-out: CYP2C9 (gene 1559); experiment: LTEA_HepaRG_CYP2C9: Life Technologies and Expression Analysis (LTEA) Assay for CYP2C9 using HepaRG (AID 2283484); details: actives raise or lower the signal; mRNA level, 48 h
Method in brief: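 CYP2C9 transcript level, quantified by TaqMan qRT-PCR against three housekeeping genes, was fitted bidirectionally relative to 0.5% DMSO. HepaRG cultures were treated 48 h, in duplicate, at eight half-log concentrations topping at 100 uM.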

Compound | outcome
Cc1c([N+](=O)[O-])cccc1[N+](=O)[O-] | inactive
Cc1ccc([N+](=O)[O-])cc1[N+](=O)[O-] | inactive
CC(C)OP(C)(=O)OC(C)C | inactive
Cc1cccc([N+](=O)[O-])c1[N+](=O)[O-] | inactive
O=[N+]([O-])c1cccc([N+](=O)[O-])c1 | inactive

read-out: CYP2E1 (gene 1571); experiment: LTEA_HepaRG_CYP2E1: Life Technologies and Expression Analysis (LTEA) Assay for CYP2E1 using HepaRG (AID 2283485); details: actives raise or lower the signal; mRNA level, 48 h
Method in brief: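 Readout is qRT-PCR of CYP2E1 mRNA, normalized to three housekeeping genes and fitted bidirectionally against 0.5% DMSO. HepaRG cells were dosed 48 h at eight concentrations, highest 100 uM with half-log dilutions.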

Compound | outcome
Cc1c([N+](=O)[O-])cccc1[N+](=O)[O-] | inactive
